Experiments:
Assay in all cases: cells
NCI-H358 = settings: Homo sapiens, NCI-H358, 144 h
MCF7 = settings: Homo sapiens, MCF7, 144 h
NCI-H460 = settings: Homo sapiens, NCI-H460, 144 h
MDA-MB-231 = settings: Homo sapiens, MDA-MB-231, 144 h
HeLa = settings: Homo sapiens, 144 h
SW480 = settings: Homo sapiens, SW480, 144 h
A549 = settings: Homo sapiens, A549, 144 h
U2OS = settings: Homo sapiens, 144 h

Measured: GI50

CCNC(=O)c1cc2c(N3CCOC[C@@H]3C)ccnc2[nH]1
> 30 µM: all assays above
